From patent US9708336B2, “Metallo-beta-lactamase inhibitors” (priority 2014, dated 2017) come the findings set out here.

Chains of the proteins cited; added tags and fusions are not shown. Lines headed by an entry give the natural chain unless they say otherwise; changes in a name come on top.
UniProt P52699: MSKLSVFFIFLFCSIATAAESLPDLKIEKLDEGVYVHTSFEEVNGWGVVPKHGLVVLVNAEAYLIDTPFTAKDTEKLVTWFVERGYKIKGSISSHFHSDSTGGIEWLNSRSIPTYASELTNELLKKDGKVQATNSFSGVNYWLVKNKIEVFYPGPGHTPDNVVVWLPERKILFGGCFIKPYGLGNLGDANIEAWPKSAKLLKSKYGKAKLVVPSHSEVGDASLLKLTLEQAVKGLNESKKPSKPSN

One test addresses IMP-1 (Serratia marcescens, UniProt P52699). The class given is biochemical. The settings on record: fluorescence assay with CCF2-FA substrate.
The next test concerns the target VIM-1 (Pseudomonas aeruginosa (strain ATCC 15692 / DSM 22644 / CIP 104116 / JCM 14847 / LMG 12228 / 1C / PRS 101 / PAO1), UniProt A0A0F7KYQ8). In words: Enzyme activity: determination of IC50, fluorescence assay with CCF2-FA substrate (VIM-1). The class given is biochemical. The settings on record: VIM-1 IC50, fluorescence assay with CCF2-FA substrate.

As a reminder, the IC50 is the concentration that inhibits the measured activity by half.

SMILES strings stand for the structures.

On to `NS(=O)(=O)c1nccc(N2CCC(CN3CCOCC3)CC2)c1-c1nnn[nH]1` [Example 224, 4-[4-(morpholin-4-ylmethyl)piperidin-1-yl]-3-(1H-tetrazol-5-yl)pyridine-2-sulfonamide], for which the IC50 came to 1090 nM against IMP-1 and 1180 nM against VIM-1.
